SMILES strings stand for the structures. Only a part is listed here, and it is no random draw. Activity calls are given as the source filed them.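 The calls were made as follows: active = activation factor of at least 2 at 20 µM, relative to controls; inactive = the rest.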

By UniProt entry, the sequences of proteins in these tests, tags left out.
UniProt P05186, whole entry: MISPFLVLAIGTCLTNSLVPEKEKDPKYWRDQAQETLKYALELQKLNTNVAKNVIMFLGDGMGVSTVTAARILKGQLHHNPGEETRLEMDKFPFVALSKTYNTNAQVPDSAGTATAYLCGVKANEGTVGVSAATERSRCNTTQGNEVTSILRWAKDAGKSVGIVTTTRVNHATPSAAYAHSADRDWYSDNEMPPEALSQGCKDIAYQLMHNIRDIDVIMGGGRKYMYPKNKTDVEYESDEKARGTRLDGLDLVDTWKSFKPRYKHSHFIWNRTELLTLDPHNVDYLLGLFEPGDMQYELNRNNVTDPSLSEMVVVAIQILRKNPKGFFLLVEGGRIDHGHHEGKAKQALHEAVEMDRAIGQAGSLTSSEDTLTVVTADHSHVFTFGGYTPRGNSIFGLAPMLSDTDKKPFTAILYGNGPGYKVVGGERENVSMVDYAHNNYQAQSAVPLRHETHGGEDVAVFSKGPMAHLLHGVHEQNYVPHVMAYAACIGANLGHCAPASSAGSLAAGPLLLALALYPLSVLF

In the assay the target is Alkaline phosphatase, tissue-nonspecific isozyme (Homo sapiens) (UniProt P05186). In words: human TNAP enzyme activators, primary screen, biochemical, luminescent, intermediate phosphate acceptor level (AID 813). The conditions noted are these: purified TNAP, CDP-star luminescence, 100 mM DEA, 30 min, at 20 µM; hits give high values, scale: 0 levamisole-inhibited, 1 vehicle-only enzyme.
Take `COc1ccc(NC2CCN(CCc3ccccc3)CC2)c(OC)c1`: the activation factor entry was “inactive”.

`O=C(OC1CN2CCC1CC2)C1c2ccccc2Oc2ccccc21` (configuration not stated): the activation factor was inactive: 1.

On to `N#CC1(Nc2ccccc2)CCN(CCc2ccccc2)CC1`, for which the activation factor entry was “inactive”.

`N/C(=N\O)c1c(N)no[n+]1[O-]`: the activation factor entry was “inactive”.

On to `CCC(CO)(C(=O)OC1CN2CCC1CC2)c1ccccc1` (configuration not stated), for which the activation factor entry was “inactive”.

For the compound `CCOc1ncccc1C(=O)NCC1(N2CCOCC2)CCCCC1`, the activation factor entry is “inactive”.

`Fc1ccccc1NC1CCN(Cc2ccccc2)CC1`: the activation factor entry is “inactive”.
